These are literature values, as cited in US20230165867A1 (CHENGDU BAIYU PHARMACEUTICAL CO., LTD., priority 2020, published 2023).

Protein sequences, listed by entry. Tags and fused reporters are not part of them.
UniProt P78527, whole entry: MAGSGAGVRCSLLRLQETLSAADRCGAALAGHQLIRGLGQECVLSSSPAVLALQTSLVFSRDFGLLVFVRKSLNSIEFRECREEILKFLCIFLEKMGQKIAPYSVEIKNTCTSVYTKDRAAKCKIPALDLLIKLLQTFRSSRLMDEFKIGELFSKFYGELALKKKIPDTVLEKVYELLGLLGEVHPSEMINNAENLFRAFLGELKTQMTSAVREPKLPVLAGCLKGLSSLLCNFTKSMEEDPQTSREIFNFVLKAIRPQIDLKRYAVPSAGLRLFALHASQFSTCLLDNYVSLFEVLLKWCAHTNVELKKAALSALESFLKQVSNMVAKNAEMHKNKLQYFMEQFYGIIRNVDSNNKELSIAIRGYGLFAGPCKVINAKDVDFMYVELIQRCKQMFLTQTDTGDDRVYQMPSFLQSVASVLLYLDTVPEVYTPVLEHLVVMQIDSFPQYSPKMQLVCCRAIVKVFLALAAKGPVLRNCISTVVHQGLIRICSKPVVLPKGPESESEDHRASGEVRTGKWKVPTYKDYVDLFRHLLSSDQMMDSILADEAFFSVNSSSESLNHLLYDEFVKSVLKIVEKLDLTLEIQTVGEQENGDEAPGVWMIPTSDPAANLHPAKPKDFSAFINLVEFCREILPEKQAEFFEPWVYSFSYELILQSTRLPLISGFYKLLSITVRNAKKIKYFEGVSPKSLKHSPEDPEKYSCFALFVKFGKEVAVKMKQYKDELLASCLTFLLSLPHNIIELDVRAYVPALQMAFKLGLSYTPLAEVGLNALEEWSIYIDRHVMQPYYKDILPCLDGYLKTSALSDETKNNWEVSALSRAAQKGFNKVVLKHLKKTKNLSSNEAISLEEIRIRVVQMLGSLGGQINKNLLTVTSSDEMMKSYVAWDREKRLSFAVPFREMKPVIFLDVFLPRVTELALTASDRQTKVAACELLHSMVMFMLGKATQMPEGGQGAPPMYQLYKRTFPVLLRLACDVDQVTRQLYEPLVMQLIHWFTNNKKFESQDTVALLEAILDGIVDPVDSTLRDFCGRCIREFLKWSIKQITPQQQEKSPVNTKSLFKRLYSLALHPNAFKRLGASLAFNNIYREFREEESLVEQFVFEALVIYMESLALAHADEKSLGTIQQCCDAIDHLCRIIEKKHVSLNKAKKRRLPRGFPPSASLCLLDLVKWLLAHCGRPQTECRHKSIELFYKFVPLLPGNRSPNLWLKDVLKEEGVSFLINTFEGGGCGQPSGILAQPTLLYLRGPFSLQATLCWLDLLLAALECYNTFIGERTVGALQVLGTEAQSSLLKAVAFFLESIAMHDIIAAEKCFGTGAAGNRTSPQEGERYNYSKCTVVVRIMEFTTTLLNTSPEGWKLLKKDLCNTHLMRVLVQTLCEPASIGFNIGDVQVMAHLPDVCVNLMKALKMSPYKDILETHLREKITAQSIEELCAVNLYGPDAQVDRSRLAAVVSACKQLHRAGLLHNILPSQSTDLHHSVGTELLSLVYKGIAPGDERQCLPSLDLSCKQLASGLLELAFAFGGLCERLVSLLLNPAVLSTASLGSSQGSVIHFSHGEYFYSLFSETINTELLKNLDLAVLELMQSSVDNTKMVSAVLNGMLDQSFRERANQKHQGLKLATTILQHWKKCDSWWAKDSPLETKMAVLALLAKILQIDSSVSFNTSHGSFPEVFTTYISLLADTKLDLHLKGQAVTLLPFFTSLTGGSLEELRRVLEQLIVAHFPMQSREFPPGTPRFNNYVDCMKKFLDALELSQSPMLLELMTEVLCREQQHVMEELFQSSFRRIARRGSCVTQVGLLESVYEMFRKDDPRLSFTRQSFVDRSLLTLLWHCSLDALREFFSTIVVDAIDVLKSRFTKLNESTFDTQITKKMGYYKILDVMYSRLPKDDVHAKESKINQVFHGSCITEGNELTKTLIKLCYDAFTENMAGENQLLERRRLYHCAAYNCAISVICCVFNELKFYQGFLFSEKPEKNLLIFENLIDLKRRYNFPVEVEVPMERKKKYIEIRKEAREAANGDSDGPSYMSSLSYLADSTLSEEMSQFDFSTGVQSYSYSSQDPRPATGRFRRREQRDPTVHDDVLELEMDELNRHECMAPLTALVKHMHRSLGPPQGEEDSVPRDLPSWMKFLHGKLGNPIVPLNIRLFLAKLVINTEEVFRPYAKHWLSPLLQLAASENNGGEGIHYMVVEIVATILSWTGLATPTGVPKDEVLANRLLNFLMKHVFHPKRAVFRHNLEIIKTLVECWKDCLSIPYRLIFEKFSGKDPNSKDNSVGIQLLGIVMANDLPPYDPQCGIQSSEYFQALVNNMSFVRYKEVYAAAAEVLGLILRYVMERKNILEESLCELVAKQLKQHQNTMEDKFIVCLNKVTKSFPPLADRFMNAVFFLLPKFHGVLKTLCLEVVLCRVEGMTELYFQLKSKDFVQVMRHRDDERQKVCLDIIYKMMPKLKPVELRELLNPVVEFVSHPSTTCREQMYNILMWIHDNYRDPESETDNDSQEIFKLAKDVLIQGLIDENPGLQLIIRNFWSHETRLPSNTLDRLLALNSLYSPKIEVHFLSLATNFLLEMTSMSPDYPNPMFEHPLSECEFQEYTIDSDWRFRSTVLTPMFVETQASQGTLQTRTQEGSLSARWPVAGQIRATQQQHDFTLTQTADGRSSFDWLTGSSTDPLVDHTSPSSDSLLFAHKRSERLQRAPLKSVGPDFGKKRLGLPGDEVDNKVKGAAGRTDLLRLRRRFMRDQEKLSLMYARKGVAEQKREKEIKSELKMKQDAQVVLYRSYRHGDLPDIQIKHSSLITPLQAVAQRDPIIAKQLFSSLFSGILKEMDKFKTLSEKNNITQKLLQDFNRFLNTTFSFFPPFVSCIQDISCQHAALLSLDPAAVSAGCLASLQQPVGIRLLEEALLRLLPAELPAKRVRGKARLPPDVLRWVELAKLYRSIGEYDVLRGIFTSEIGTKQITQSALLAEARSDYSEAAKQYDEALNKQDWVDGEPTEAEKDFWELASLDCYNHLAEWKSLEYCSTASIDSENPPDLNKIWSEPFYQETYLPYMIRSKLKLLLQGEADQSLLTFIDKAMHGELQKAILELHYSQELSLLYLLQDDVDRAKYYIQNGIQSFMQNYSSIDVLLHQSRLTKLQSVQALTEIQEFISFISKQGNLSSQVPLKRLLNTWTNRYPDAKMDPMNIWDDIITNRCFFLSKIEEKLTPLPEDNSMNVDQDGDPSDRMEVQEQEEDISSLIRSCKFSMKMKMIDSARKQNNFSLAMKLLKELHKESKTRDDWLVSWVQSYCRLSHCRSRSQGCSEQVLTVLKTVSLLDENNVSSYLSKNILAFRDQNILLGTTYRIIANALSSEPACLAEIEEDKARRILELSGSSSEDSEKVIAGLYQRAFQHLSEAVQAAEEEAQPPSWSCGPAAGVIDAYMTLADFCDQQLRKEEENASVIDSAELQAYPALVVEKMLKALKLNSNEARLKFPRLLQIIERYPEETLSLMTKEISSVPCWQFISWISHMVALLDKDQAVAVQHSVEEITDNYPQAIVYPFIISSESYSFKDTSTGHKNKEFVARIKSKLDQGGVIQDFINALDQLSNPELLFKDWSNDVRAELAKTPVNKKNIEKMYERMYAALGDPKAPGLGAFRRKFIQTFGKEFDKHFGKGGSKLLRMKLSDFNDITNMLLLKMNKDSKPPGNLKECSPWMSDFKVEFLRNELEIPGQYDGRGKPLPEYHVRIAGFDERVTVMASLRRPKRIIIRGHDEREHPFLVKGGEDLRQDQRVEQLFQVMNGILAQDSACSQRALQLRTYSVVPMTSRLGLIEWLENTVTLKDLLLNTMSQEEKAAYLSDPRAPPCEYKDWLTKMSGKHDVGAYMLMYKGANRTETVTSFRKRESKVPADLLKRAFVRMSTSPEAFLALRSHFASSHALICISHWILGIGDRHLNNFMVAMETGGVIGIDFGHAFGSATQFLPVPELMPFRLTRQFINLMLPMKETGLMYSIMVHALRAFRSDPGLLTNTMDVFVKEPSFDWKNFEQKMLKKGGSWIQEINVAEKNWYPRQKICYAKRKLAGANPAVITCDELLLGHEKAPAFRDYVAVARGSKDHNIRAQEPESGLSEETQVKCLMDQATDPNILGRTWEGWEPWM

The term IC50 denotes the concentration that gives 50% inhibition.

This series concerns the target DNA-PK (Homo sapiens, UniProt P78527). As to conditions: read-out: IC50 (DNA-PK); Sarkaria et al., 1998; cited from earlier work.

Structures are written as SMILES.

`COC[C@H]1OC(=O)c2coc3c2[C@@]1(C)C1=C(C3=O)[C@@H]2CCC(=O)[C@@]2(C)C[C@H]1OC(C)=O` [Wortmannin]: the IC50 was around 15 nM.
